## Measured affinities in a library of Ab-14 light chain variants

Data: MIT Lincoln Laboratory AlphaSeq set, Li et al. 2023, doi:10.1038/s41467-023-39022-2, as distributed in FLAb.

Target: peptide PDVDLGDISGINAS, taken from heptad repeat 2 (HR2) of SARS-CoV-2 spike.

Each scFv is VH, the linker GGGGSGGGGSGGGGS, VL, as in the parent Ab-14, and differs from it in the CDRs of the light chain only.
VH: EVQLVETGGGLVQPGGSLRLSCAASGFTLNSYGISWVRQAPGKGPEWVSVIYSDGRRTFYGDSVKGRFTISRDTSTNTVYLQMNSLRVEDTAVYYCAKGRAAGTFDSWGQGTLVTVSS
VL: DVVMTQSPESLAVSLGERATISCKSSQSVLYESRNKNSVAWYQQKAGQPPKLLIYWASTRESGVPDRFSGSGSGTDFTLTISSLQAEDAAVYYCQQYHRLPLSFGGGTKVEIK

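Phage display of a naive human antibody library on the peptide gave the parent. Designed CDR sequences, proposed from the first random library and measured here. Their group label is 14L_En_Gen (En: ensemble of fine-tuned language models; Gen: genetic algorithm). In AlphaSeq, yeast of one mating type display the scFv and yeast of the other type display the target. Pairs that bind mate more often; barcode pairs of the diploids are counted by sequencing. Scores were corrected for input abundance and mapped to Kd with protein pairs of known affinity run in the same pool. There are six technical replicates.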

Each variant is given by its three light chain CDRs, as the data file delimits them; those of the parent are KSSQSVLYESRNKNSVA, WASTRES, QQYHRLPLS. Values are log10 of the apparent Kd in nM; lower means stronger binding. Where no diploid with the target was found in that replicate, the entry reads "nd": below detection, most likely a poor binder, though not proof of it. Values of this round are not directly comparable with the first-round values of the same sequences. In the paper, a design with two or fewer of six values counts as a poor binder. The parent sequence was in this pool as ten entries: three were never detected, three once, and four in most replicates, with averages from 0.34 to 2.37. Background: pairings of all light chain designs with three empty control strains gave a value in 4% of cases (median 2.64, 5th percentile 1.59). Values in that range, when seen in few replicates, are hard to tell from nonspecific mating. Also given: how often the same scFv was detected with the empty control strains, with their mean in brackets.

CDR-L1,CDR-L2,CDR-L3,log10 Kd (nM) by replicate,control signals
KLTSLTGTEKVRGNNVA,EMETRES,QQYNRLPLA,0.74 1.06 0.39 0.69 0.53 0.39,0/18
KLQSITGTEKVHGNNVA,EMETRER,QQYNRLPLA,0.22 -0.13 0.08 0.16 -0.37 0.13,0/18
KIGMTLNQLLHKKNNVA,DLVERET,QQYFRLPLS,0.69 0.44 0.23 0.09 0.43 0.89,0/18
QLSSITGHMQMIKNNVA,EMETREN,QQYDRLPLS,1.01 0.66 1.16 0.57 1.03 1.22,1/18 (3.93)
SLYEMNYELSGKTHSVA,DNSTRGE,QQYFRLPLD,nd nd nd 2.94 nd nd,0/18
MISQLINMGQFAINSVA,QAEIRNE,QQYDRLPLT,nd nd nd nd nd nd,0/18
TIGGTLMYGMRNYSNVA,EVSERLN,QQYDRLPLI,1.34 2.06 nd 1.89 1.13 nd,0/18
HLGLAAMLEEYVRNSVA,NNSTREE,QQYDRLPLS,nd 2.65 1.51 nd nd nd,2/18 (2.96)
KISAVMENQLKNRNSVA,ELVTRVN,QQYNRLPLS,1.37 1.88 1.61 1.10 1.71 1.30,0/18
MLSQMWGLGQHAKNSVA,QASMRFN,QQYHRLPLI,nd nd 1.46 nd 1.83 2.54,0/18
HLGMATMLEETKRNSVA,NNSTREQ,QQYDRLPLS,0.93 nd 1.51 0.71 1.42 1.28,0/18
QIYQAMHTLMQAKNNIA,DVTNRNN,QQYHRLPLS,0.63 -0.09 -0.09 0.13 0.45 -0.04,0/18
MVSQLMVWGMHAKNSIA,EAQTRLN,QQYDRLPLF,nd nd nd nd nd nd,1/18 (0.73)
HMSAITLGGMRAKNSVA,QMTTREN,QQYDRLPLS,1.15 1.38 1.36 0.97 1.16 1.10,2/18 (2.73)
MISQMYNMGQFAINSVA,QAQTRNE,QQYDRLPLT,nd 1.69 1.46 1.33 0.90 1.65,0/18
QIYQAMHTLSQMKNNVA,DVNERGS,QQYFRLPLS,-0.06 0.11 0.04 -0.20 -0.03 0.05,1/18 (2.20)
KISQMVRVGSTKQNSIA,EEETRAD,QQYHRLPLS,0.52 0.33 0.57 0.30 0.23 0.61,1/18 (2.86)
HMSAVTMLGSRHRNSVA,QMTTREN,QQYDRLPLS,1.12 1.33 1.16 0.85 1.48 1.25,2/18 (2.62)
MISQLWNMGQFAINSVA,QASIRNS,QQYDRLPLI,nd nd nd nd nd nd,0/18
KISESMNFAQFNKQSIA,EVSNRSS,QSYNRLPLS,nd 2.05 1.53 1.98 2.25 2.65,1/18 (3.53)
KVSEFMRGLMQRKDSIA,DNVTRVN,QQYDRLPLS,1.37 1.13 1.43 1.18 1.15 1.15,1/18 (2.65)
MVSQLMVWGMHAKNSIA,EAEHRIN,QQYDRLPLF,nd 2.37 nd 1.58 nd 2.02,0/18
MISQLYNMGSFAINSVA,QASQRNE,QQYDRLPLM,1.02 1.05 0.86 0.93 0.99 1.25,0/18
MVNGIMDHLSKQTNNVA,ETVTREE,QQYERLPLS,0.74 0.63 0.54 0.68 0.49 1.08,1/18 (2.85)
KISQMARVGSTHSNSIA,EEATRAK,QQYHRLPLF,1.62 1.77 nd 1.47 1.94 2.52,1/18 (1.79)
MVYETMDIAMMKKNSIA,DNQTRED,QQYHHLPLS,3.06 nd 3.79 nd nd 2.91,0/18
KIGMYFGLLTRQANSIA,DNQTRED,QQYNRLPLS,4.12 2.35 1.71 nd 4.34 nd,0/18
TLYGLMLSMSKNKNSVA,EMTTREK,QQYDRLPLV,1.20 1.94 1.57 1.23 1.87 0.76,1/18 (2.40)
TLYGLSVSMSKNKNNVA,EMTTREK,QQYDRLPLV,1.21 0.85 0.60 0.85 0.82 0.90,3/18 (3.46)
MMSQVTALGQRHRNNVA,QTSTRED,QQYDHLPLI,0.96 0.73 0.40 0.45 0.62 0.87,1/18 (4.26)
KLGMTLNQLMRKKNNVA,DLVERET,QQYFRLPLS,0.44 0.09 -0.01 0.22 0.13 0.35,0/18
TISQMTSLFSQSINNVA,EVSTREP,QQYDRLPLS,0.92 0.81 0.58 0.70 1.01 1.02,2/18 (2.72)
TISELYNQALGIRNNVA,NNQTRED,QQYARLPLS,0.68 1.42 nd 2.17 0.90 1.59,0/18
HMSMLTLQGLRHRNSVA,QMTTRVN,QQYDRLPLA,1.68 0.96 2.35 1.77 1.72 1.16,0/18
MLSQMWALGMKVSNSVA,QAQTRFN,QQYERLPLI,nd 1.67 1.60 2.07 3.77 2.12,1/18 (2.79)
SLGLVTMLEYAGRNSVA,NNSTREE,QQYDRLPLS,3.33 nd 2.44 nd 2.91 2.46,1/18 (2.24)
IVSQLMIWGMHLKNSIA,EAETRIN,QQYDRLPLF,nd nd nd nd nd nd,0/18
TISQLHNMGTFAINSVA,QASLRNE,QQYDRLPLA,1.32 1.35 1.07 0.97 1.04 1.04,2/18 (2.65)
KLVNFMNRGTHHTSNIA,DAANRID,QQYYRLPLA,0.85 0.01 1.03 0.40 0.99 0.54,1/18 (1.28)
TISGVMQQMTHSKNNVA,EVSTRLE,QQYFRLPLE,0.50 0.56 0.68 0.53 0.06 0.42,0/18

The last 6 entries again:

CDR-L1,CDR-L2,CDR-L3,log10 Kd (nM) by replicate,control signals
MLSQMWALGMKVSNSVA,QAQTRFN,QQYERLPLI,nd 1.67 1.60 2.07 3.77 2.12,1/18 (2.79)
SLGLVTMLEYAGRNSVA,NNSTREE,QQYDRLPLS,3.33 nd 2.44 nd 2.91 2.46,1/18 (2.24)
IVSQLMIWGMHLKNSIA,EAETRIN,QQYDRLPLF,nd nd nd nd nd nd,0/18
TISQLHNMGTFAINSVA,QASLRNE,QQYDRLPLA,1.32 1.35 1.07 0.97 1.04 1.04,2/18 (2.65)
KLVNFMNRGTHHTSNIA,DAANRID,QQYYRLPLA,0.85 0.01 1.03 0.40 0.99 0.54,1/18 (1.28)
TISGVMQQMTHSKNNVA,EVSTRLE,QQYFRLPLE,0.50 0.56 0.68 0.53 0.06 0.42,0/18